Data on one compound can be found in paper doi:10.1101/2020.10.13.337410v3, “Agonist efficiency from concentration-response curves: structural implications and applications” (biorxiv, 2021).

Chains of the proteins cited; added tags and fusions are not shown. Lines headed by an entry give the natural chain unless they say otherwise; changes in a name come on top. Residues count along the entry.
UniProt P02716, 25-520: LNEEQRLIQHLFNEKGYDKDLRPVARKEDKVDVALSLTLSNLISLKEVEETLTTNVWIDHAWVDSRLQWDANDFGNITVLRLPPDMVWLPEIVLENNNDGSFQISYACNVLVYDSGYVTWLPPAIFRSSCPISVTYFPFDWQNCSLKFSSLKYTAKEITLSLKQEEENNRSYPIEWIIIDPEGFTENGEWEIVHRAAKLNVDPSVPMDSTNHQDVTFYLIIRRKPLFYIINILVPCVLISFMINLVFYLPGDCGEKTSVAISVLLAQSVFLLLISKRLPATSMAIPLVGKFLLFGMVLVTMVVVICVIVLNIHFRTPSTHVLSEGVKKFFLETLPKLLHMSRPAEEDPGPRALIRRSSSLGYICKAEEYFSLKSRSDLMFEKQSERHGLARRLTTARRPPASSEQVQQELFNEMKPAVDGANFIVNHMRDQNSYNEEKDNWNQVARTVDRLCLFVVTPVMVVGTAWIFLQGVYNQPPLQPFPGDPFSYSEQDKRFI
UniProt P20782, 21-493: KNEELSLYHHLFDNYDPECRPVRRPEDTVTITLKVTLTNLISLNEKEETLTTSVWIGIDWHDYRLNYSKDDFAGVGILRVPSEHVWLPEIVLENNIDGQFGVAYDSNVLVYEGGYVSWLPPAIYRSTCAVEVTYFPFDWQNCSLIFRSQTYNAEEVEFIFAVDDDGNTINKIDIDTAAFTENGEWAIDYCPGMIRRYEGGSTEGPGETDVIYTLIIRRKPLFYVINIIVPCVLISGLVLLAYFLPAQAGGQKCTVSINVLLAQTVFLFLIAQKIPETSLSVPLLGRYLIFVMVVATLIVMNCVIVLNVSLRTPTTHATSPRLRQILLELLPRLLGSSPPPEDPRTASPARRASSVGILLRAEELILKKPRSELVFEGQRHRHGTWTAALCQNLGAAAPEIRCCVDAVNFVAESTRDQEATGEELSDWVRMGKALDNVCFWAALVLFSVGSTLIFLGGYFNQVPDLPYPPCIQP

Structures are written as SMILES.

This experiment deals with T1, adult-type mouse AChR (α1-GFP, β, δ, ε), whole-cell (Mus musculus, UniProt P02716+P04756+P20782).
T1 construct: gene Chrna1; alpha1 with GFP encoded between M3 and M4; transient expression in HEK293, GFP-sorted cells; pentamer; no background mutations; with Acetylcholine receptor subunit beta
As to the kind of experiment: automated whole-cell patch clamp (IonFlux […]), concentration-response. It is filed as cell-based.

The EC50 is the concentration that produces a half-maximal response. Lower therefore signals higher potency in that assay.

The compound `Clc1ccc(C2CC3CCC2N3)cn1` (stereo not shown) [Ebt] gave an EC50 of 8.42 ± 1 µM.
